Measurements from patent publication US8017638B2, “Isoxazole derivative and isothiazole derivative having inhibitory activity on 11β-hydroxysteroid dehydrogenase type 1” (Shionogi & Co., Ltd., priority 2006, dated 2011).
pIC50: −log10 of the molar value.

Amino acid sequences for entries named in this document (tags omitted).
UniProt P28845, whole entry: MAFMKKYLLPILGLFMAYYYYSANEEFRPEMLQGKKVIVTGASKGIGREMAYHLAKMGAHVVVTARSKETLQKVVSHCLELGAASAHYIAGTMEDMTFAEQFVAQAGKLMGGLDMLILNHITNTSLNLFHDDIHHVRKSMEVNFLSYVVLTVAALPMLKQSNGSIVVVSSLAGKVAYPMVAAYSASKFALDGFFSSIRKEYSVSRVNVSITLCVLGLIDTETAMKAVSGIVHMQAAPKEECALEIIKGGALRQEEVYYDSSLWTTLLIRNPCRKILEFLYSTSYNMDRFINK
UniProt P50172, whole entry: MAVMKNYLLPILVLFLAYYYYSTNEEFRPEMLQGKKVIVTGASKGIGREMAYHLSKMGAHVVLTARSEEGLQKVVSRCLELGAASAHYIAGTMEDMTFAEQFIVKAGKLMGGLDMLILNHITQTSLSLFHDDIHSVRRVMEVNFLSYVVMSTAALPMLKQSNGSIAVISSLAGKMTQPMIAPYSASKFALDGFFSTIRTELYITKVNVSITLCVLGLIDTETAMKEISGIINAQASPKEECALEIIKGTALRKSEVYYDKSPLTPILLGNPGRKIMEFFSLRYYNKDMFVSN

Experiments:
[1] = target: recombinant human 11β-HSD1 (Homo sapiens, UniProt P28845); assay: Enzyme activity assay on human 11β-HSD1 (HTRF, cortisol production); settings: read-out: humanIC50, recombinant human 11β-HSD1, 5 μM cortisone as substrate, 2 hours at 37° C., tested form: hydrochloride
Protocol: Evaluation of 11β-HSD1 Inhibitors (Enzyme Activity Assay on Human 11β-HSD1)
Enzymatic activity for human 11β-HSD1 was determined in a 10 μl final volume of assay mixture containing 50 mM sodium phosphate buffer (pH 7.6), 1 mg/ml bovine serum albumin, 0.42 mg/ml NADPH, 1.26 mg/ml glucose-6-phosphate, glucose-6-phosphate dehydrogenase, test compound, recombinant human 11β-HSD1, and 5 μM cortisone as substrate. The reaction was started with the addition of cortisone. After incubation for 2 hours at 37° C., 5 μl of europium cryptate-labelled anti-cortisol antibody and 5 μl of XL665-labeled cortisol were added. After further incubation for 2 hours at room temperature, the homogeneous time-resolved fluorescence (HTRF) signal was measured. The cortisol production was quantitated by a standard curve generated with several known concentrations of cortisol in each assay.
(§1) The amount of cortisol production without compounds served as control, and the percent inhibition by test compound at each concentration was calculated. The IC50 value of the compound for 11β-HSD1 was obtained using the inhibition curve generated by plotting the percent inhibition versus the concentration of test compound.

[2] = target: recombinant mouse 11β-HSD1 (Mus musculus, UniProt P50172); assay: Enzyme activity assay on mouse 11β-HSD1 (HTRF, corticosterone production); settings: read-out: mouseIC50, recombinant mouse 11β-HSD1, 2 μM 11-dehydrocorticosterone as substrate, 2 hours at 37° C., tested form: hydrochloride
Protocol: Evaluation of 11β-HSD1 Inhibitors (Enzyme Activity Assay on Mouse 11β-HSD1)
Enzymatic activity for mouse 11β-HSD1 activity was determined in a 10 μl final volume of assay mixture containing 50 mM sodium phosphate buffer (pH 7.6), 1 mg/ml bovine serum albumin, 0.42 mg/ml NADPH, 1.26 mg/ml glucose-6-phosphate, glucose-6-phosphate dehydrogenase, test compound, recombinant mouse 11β-HSD1, and 2 μM 11-dehydrocorticosterone as substrate. The reaction was started with the addition of 11-dehydrocorticosterone. After incubation for 2 hours at 37° C., 5 μl of europium cryptate-labelled anti-cortisol antibody and 5 μl of XL665-labeled cortisol were added. After further incubation for 2 hours at room temperature, the HTRF signal was measured. The corticosterone production was quantitated by a standard curve generated with several known concentrations of corticosterone in each assay.
as §1, with “corticosterone” for “cortisol”, “by” for “by test”

## CC(C)Sc1c(OCC(C)(C)C(=O)NC2CCNCC2)noc1C(=O)NC1C2CC3CC(C2)CC1C3 (centres unmarked)
[1]
  pIC50: 6.09
[2]
  pIC50: 6.77
